Experimental data taken from ChEMBL document CHEMBL6103545, “Discovery of GS-2278, a Potent and Selective LPAR1 Antagonist for the Treatment of Idiopathic Pulmonary Fibrosis” (J Med Chem, 2025).

Amino acid sequences for entries named in this document (tags omitted). A change or cut given only in a name is not applied to a line headed by its entry.
UniProt Q9H1C0: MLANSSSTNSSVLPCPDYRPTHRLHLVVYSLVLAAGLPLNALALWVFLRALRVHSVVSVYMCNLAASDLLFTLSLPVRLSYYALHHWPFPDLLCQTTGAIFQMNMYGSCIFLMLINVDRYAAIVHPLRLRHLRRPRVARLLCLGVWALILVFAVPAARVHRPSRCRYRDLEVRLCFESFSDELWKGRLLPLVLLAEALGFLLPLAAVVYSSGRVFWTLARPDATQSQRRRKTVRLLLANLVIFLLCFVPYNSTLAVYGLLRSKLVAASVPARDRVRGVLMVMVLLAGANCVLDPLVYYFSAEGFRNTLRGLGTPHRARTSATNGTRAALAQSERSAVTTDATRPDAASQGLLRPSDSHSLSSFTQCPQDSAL

Experiments:
[1] = biological target: T1, Lysophosphatidic acid receptor 3 (Homo sapiens) (UniProt Q9UBY5); test: Antagonist activity at human LPA3 receptor at 10 uM relative to control; format: functional; settings: filed as antagonist
T1 sequence (whole entry): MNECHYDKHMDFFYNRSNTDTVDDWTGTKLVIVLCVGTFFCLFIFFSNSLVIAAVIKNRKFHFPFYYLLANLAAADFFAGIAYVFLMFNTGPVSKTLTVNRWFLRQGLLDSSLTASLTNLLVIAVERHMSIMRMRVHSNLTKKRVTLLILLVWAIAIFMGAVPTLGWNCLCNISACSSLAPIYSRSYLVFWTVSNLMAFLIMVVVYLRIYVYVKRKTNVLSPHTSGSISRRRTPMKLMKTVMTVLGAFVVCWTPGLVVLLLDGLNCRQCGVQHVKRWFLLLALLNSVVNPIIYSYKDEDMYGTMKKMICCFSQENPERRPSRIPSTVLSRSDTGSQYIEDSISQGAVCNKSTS

[2] = biological target: Lysophosphatidic acid receptor 5 (Homo sapiens, UniProt Q9H1C0); test: Antagonist activity at human LPA5 receptor at 10 uM relative to control; format: functional
[3] = biological target: T2, Vasopressin V1b receptor (Homo sapiens) (UniProt P47901); test: Antagonist activity at human AVPR1b expressed in U2OS cells at 30 uM by gpcrSCAN assay; format: cell-based; settings: filed as antagonist
T2 sequence (whole entry): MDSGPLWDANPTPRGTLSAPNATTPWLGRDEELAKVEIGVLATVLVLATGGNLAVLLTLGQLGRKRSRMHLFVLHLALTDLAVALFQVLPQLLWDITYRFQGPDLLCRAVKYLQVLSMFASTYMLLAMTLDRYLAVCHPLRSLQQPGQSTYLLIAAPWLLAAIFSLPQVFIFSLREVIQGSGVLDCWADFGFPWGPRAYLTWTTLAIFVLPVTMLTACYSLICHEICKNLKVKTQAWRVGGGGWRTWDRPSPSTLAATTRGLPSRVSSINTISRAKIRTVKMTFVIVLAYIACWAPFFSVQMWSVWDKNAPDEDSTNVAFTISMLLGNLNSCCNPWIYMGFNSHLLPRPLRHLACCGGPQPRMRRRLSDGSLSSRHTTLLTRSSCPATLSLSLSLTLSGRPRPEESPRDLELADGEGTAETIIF

inhibition [1]: 69%
inhibition [2]: 35%
inhibition [3]: 63%
SMILES: C[C@@H](OC(=O)Nc1c(-c2ccc(NC(=O)c3cnc(C(F)(F)F)nc3)cn2)nnn1C)c1cc(F)cnc1F
